Active and inactive are the calls of the source. The rule behind the calls is not given here.
Biological target: von Hippel-Lindau disease tumor suppressor/Bromodomain-containing protein 4 (Homo sapiens, UniProt O60885+P40337)
Experiment: PROTAC activity at HiBit tagged BRD4/VHL E3 ligase in human HEK293 cells assessed as induction of BRD4 degradation incubated for 5 hrs followed by compound washout and measured after 24 hrs in presence of VH032 by Western blot analysis
Format: cell-based

Cc1ncsc1-c1ccc(CNC(=O)[C@@H]2C[C@@H](O)CN2C(=O)[C@@H](NC(=O)COCCOCCOCCNC(=O)C[C@@H]2N=C(c3ccc(Cl)cc3)c3c(sc(C)c3C)-n3c(C)nnc32)C(C)(C)C)cc1
Activity: Active
